For data set [1] the following is noted: cited from earlier work.
Data set [2] concerns the target human APJ-AT1R (angiotensin Type 1) double stable CHO cell line (Homo sapiens (Human), UniProt P30556+P35414). In words: IP1 accumulation (TR-FRET), AngII concentration series with fixed pyrapelin-13, APJ-AT1R double stable CHO cells. To be noted: different concentrations of AngII, fixed concentration of pyrapelin-13, APJ and AT1R co-expressed. The class given is cell-based.

Data set [3] has as its target human APJ receptor expressed in the CHO cell line (Homo sapiens (Human), UniProt P35414). In words: IP1 accumulation (TR-FRET), AngII concentration series with fixed pyrapelin-13, APJ CHO cells. To be noted: different concentrations of AngII, fixed concentration of pyrapelin-13, human APJ receptor expressed alone. The class given is cell-based.

In the case of Apelin-13, the plasma half-life in data set [1] is given as under 5 min.

Regarding pyroglutamated apelin-13 [pyrapelin-13], the “positive cooperativity on AT1R (IP1 accumulation)” value in data set [2] is recorded as “induces the positive cooperativity on the AT1R”. Besides, the “positive cooperativity (IP1 accumulation)” value in data set [3] is “no positive cooperativity observed”.

Source of the values: patent publication US10736883B2, “Triazole furan compounds as agonists of the APJ receptor” (AMGEN INC., priority 2016, dated 2020).
